Earlier results as cited in US8334239B2, “High affinity VEGF-receptor antagonists” (The Board of Regents of the University of Texas System, priority 2007, dated 2012).

Sequences of proteins named here, by UniProt entry; tags and fusion partners are left off. Residues count along the entry.
UniProt P35968, 20-1356: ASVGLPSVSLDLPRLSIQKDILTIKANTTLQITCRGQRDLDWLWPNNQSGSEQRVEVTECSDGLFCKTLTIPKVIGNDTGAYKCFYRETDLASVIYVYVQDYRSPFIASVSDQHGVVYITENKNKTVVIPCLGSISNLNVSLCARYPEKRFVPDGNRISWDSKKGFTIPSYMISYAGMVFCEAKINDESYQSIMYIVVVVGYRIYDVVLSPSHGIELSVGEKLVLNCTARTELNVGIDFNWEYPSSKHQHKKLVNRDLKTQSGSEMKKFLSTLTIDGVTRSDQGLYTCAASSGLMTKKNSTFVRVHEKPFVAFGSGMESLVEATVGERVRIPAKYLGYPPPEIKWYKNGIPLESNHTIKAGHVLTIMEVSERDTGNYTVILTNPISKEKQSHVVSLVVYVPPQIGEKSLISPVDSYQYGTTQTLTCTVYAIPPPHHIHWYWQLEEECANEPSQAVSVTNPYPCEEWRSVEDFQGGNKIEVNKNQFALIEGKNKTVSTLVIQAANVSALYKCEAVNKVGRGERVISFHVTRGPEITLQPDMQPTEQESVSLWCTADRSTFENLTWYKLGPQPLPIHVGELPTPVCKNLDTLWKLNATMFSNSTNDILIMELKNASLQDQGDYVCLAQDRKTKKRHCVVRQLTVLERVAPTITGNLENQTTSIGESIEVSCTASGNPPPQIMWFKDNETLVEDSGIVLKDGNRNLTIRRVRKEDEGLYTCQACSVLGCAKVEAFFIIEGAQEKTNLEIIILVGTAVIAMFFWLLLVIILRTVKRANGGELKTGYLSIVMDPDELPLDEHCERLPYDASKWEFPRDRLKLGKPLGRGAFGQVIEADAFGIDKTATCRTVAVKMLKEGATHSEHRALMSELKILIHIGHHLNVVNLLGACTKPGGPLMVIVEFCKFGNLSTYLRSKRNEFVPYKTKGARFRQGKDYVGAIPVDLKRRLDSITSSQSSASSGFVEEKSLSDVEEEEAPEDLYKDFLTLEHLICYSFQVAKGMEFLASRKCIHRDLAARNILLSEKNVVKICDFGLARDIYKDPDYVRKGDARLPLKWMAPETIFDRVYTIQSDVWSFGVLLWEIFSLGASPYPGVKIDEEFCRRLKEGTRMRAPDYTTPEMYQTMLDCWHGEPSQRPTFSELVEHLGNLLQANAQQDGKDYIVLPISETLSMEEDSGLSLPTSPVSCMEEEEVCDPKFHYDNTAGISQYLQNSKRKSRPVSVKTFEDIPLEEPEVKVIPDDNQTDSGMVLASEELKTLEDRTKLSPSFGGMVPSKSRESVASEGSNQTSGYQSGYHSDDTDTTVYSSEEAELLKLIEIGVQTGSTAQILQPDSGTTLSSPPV

Target: VEGFR2 (Homo sapiens, UniProt P35968)
Conditions: read-out: KD for the receptor; cited from earlier work

Substance: VEGF
- Kd: 50 pM
